Results taken from patent US9200319B2, “Nucleotides and nucleosides and methods for their use in DNA sequencing” (Lasergen, Inc., priority 2008, dated 2015).

Chains of the proteins cited; added tags and fusions are not shown.
UniProt Q56366, whole entry D141A/E143A/A485L: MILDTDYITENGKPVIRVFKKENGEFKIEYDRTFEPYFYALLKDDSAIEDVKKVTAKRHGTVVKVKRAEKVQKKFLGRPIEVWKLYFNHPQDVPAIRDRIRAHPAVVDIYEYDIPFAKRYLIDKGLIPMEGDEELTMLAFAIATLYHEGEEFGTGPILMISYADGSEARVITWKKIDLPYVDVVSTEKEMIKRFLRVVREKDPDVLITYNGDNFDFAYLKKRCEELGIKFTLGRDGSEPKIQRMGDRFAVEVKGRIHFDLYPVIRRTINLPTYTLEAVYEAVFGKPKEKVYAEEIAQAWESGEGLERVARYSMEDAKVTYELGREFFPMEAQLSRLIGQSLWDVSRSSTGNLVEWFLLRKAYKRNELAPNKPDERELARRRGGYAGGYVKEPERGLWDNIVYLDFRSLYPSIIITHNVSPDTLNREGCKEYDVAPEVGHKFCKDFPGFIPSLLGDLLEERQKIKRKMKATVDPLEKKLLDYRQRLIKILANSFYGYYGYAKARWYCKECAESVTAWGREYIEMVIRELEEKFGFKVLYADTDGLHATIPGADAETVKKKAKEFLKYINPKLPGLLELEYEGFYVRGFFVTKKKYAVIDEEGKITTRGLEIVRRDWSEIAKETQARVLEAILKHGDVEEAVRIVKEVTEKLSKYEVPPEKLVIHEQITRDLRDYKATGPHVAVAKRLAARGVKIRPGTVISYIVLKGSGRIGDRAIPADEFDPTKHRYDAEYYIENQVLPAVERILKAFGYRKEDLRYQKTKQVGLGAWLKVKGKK

Molecular target: T1, THERMINATOR™ DNA polymerase (Thermococcus sp., UniProt Q56366, A485L/D141A/E143A)
T1 construct: purchased New England Biolabs
Type: biochemical, Thermococcus species 9° N-7
Conditions: concentration at which the compound incorporates on half the primer-template complexes, complement template base, read-out: IC50 for incorporation
Method: Natural and modified nucleotides were tested for incorporation efficiency using the “polymerase end point assay” (Wu et al., 2007, which is incorporated herein by reference). This assay examines incorporation efficiency on matched and mismatched template bases. Incorporation efficiency is measured by determining the concentration at which the compound incorporates on half the primer-template complexes (IC50). Titrations of increasing compound concentration were performed to generate curves from which the IC50 can be determined.
The sequence of the template DNA is selected depending on which compound will be tested. For example, the first interrogation base after the primer in the template sequence is the complement base of the compound when measuring incorporation efficiency, and one of three mismatched bases when measuring mismatch discrimination properties.
(§1) To the annealed reaction, a DNA polymerase (e.g., THERMINATOR™ DNA polymerase, 0.25 units per reaction, New England Biolabs), 1× Thermopol Buffer, and a known concentration of either natural or modified nucleotide are added to each 10 μL reaction and incubated at 75° C. for 10 minutes, cooled on ice, and quenched with 10 μL of stop solution (98% formamide: 10 mM Na2EDTA, pH=8.0, 25 mg/ml Blue Dextran). Stopped reactions are heated to 75° C. for 30 seconds to denature the DNA, and then placed on ice. The extension products are analyzed on a 10% Long Ranger (Lonza) polyacrylamide gel using an ABI model 377 DNA sequencer. Additional details are provided in Example 1, below.
Polymerase Assays. Natural and modified nucleotides were tested for incorporation efficiency using the “polymerase end point assay” (Wu et al., 2007, which is incorporated herein by reference). This assay examines incorporation efficiency on matched and mismatched template bases. Incorporation efficiency is measured by determining the concentration at which the compound incorporates on half the primer-template complexes (IC50). Titrations of increasing compound concentration were performed to generate curves from which the IC50 can be determined. […]
as §1, with “Stopped reactions are heated to 75° C. for 30 seconds to denature the DNA, and then placed on ice.” left out, “sequencer.” for “sequencer. Additional details are provided in Example 1, below.”

| Substance | IC50 (listed as 6p038/6p017) [nM] | IC50 [nM] |
| --- | --- | --- |
| 5-(α-isopropyl-2-nitrobenzyloxy)methyl-2′-dCTP-Cy5 [6p017] | 5.1 ± 1.4 | 4.8 ± 1.9 |
| 6-FAM labeled 7-{(R)-1-[4-(3-amino-1-propynyl)-2-nitrophenyl]-2-methyl-propyloxy}methyl-7-deaza-2′-deoxyadenosine-5′-triphosphate [5p127] | – | 6.4 ± 1 |
| 5-(α-isopropyl-2-nitrobenzyloxy)methyl-2′-dUTP-6-JOE [6p008] | – | 9 ± 1.4 |

Where two headings read alike, the source gives them in different places.
